Biological target: Kappa-type opioid receptor (Homo sapiens, UniProt P41145)
Assay: Agonist activity at human kappa-type opioid receptor expressed in CHO-K1 cells assessed as forskolin-induced cAMP accumulation after 30 mins in presence of forskolin by luminescence-based HitHunter cAMP assay
Format: functional, cell-based
Method in brief: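 CHO-K1 cells expressing the receptor were kept at 37 °C in 5% CO2. cAMP data were normalized to vehicle and forskolin-only controls. Each compound was run in triplicate in parallel assays in ≥2 independent experiments. EC50 and Emax came from sigmoidal nonlinear regression and were averaged across experiments as mean ± SEM.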

Amino acid sequences for entries named in this document (tags omitted). A change or cut given only in a name is not applied to a line headed by its entry.
UniProt P41145: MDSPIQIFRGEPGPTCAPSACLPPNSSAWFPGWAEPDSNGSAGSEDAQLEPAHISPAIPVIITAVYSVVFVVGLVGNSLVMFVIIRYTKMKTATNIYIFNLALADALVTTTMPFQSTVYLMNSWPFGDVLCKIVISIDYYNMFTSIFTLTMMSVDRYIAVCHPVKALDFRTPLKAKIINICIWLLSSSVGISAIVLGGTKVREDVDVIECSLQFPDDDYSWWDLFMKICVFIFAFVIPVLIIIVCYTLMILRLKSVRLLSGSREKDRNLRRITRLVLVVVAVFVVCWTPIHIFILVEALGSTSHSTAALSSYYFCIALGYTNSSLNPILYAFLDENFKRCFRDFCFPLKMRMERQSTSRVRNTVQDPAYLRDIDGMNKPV

`COC(=O)[C@@H]1C[C@H](O)C(=O)[C@H]2[C@@]1(C)CC[C@H]1C(=O)O[C@H](c3ccoc3)C[C@]21C` [SALVINORIN B] gave an EC50 of 2.4 nM.

— ChEMBL document CHEMBL4049431 (J Med Chem, 2017)
